Literature values in patent US12403100B2, “Natural combination products and methods for regulation of total blood cholesterol” (priority 2018, dated 2025).

Details: Table 1

CC(C)c1c(C(=O)Nc2ccccc2)c(-c2ccccc2)c(-c2ccc(F)cc2)n1CC[C@@H](O)C[C@@H](O)CC(=O)O [Atorvastatin]
Lipo/hydrophilicity: Lipophilic
